According to article PMC6902473 (Clinical Epigenetics, 2019):

Experiment: Plasma pharmacokinetics of vorinostat after oral administration (non-compartmental analysis)
Source text: The assays were validated according to the common FDA and EMA guidelines on bioanalytical method validation.

O=C(CCCCCCC(=O)Nc1ccccc1)NO [vorinostat]
t1/2, Minimum (530 mg/m2/d oral, plasma, minimum of 3 values): 1.36 h | t1/2 (human, in vivo, 214 mg/m2): 1.12 h
